Assay results as given in publication PMC3608422 (Xenobiotica; the fate of foreign compounds in biological …, 2011).

Sequences of proteins named here, by UniProt entry; tags and fusion partners are left off.
UniProt P47746, whole entry: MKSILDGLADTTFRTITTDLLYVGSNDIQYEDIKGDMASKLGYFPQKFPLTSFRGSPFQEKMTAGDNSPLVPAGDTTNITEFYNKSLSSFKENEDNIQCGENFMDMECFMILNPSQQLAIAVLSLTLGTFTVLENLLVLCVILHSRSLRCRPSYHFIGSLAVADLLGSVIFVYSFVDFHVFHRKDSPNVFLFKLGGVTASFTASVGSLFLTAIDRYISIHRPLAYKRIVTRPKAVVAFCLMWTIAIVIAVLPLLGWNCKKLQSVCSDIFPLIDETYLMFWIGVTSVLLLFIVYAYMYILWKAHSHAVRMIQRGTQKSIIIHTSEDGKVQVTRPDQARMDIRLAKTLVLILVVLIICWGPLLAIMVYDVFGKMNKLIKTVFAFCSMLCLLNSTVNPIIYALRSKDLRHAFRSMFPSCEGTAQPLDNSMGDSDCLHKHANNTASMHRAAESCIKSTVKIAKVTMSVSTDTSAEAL

Biological target: mCB1Rs (Mus musculus, UniProt P47746)
Assay type: biochemical

Substance: (−)-cis-3-[2-Hydroxy-4-(1,1-dimethylheptyl)phenyl]-trans-4-(3-hydroxypropyl)cyclohexanol [CP-55,940, reference compound]
- maximal response (G-protein activation) (CP-55,940 alone): 0.34 ± 0.03 pmol/mg protein
- ED50 required to activate G-proteins (CP-55,940 alone, mouse brain membranes): 4.3 nM
- effect on G-protein activity ([35S]GTPγS binding) (mouse brain membranes, 1 µM): stimulates
